Reference: paper PMC11347169

Protein sequences, listed by entry. Tags and fused reporters are not part of them. Lines headed by an entry give the natural chain unless they say otherwise; changes in a name come on top.
UniProt P28340: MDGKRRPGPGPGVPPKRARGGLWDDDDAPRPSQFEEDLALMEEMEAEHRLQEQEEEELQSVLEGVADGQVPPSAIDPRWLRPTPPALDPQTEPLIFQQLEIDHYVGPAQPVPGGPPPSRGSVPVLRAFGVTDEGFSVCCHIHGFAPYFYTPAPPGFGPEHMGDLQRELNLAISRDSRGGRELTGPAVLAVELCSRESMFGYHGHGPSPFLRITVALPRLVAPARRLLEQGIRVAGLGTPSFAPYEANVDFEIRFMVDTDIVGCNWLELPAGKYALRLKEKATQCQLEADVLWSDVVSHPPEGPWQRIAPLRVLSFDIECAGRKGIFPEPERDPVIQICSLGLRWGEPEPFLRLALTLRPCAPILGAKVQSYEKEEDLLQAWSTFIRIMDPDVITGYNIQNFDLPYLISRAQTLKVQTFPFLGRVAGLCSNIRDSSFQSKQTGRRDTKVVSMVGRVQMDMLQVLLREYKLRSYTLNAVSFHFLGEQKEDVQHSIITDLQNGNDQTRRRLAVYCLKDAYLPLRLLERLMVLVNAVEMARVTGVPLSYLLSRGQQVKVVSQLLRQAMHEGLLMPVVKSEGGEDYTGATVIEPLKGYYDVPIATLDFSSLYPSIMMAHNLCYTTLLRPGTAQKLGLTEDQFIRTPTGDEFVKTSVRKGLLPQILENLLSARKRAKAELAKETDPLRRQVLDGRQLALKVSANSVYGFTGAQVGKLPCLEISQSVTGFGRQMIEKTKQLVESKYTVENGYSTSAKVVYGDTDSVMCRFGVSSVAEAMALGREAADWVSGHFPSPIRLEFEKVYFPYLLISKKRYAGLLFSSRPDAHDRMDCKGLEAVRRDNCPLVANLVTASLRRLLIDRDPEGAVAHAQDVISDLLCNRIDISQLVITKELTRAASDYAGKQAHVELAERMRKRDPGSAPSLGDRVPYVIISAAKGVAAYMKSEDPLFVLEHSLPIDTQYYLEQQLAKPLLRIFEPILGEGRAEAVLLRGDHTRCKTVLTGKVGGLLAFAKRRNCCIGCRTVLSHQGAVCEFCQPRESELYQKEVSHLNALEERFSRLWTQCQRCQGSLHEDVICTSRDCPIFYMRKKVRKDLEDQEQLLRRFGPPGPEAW

Target: Pol δ polymerase-and-exonuclease-deficient mutant (Pol δ polymerase-deficient mutant) (Homo sapiens) (UniProt P28340)
Assay: MST
Settings: enzyme

Simian virus 40 large T antigen (L-Tag) (from UniProt P03070 1-708)
Kd: 1.1 nM
